Assay [1] has as its target T1, Diacylglycerol O-acyltransferase 2 (Homo sapiens, UniProt Q96PD7).
T1 sequence (Q96PD7 whole entry): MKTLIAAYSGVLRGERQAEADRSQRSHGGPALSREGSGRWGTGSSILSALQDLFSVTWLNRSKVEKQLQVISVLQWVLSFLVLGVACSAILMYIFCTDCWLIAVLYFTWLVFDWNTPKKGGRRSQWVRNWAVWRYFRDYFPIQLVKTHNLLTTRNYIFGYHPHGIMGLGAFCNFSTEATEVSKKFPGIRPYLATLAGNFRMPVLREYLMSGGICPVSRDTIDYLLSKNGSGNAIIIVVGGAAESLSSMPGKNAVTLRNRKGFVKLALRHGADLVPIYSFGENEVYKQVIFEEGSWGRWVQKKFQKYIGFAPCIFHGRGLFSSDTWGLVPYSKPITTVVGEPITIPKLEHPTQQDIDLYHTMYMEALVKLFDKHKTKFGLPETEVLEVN
Put plainly: Inhibition of human DGAT2 using [1-14C]decanoyl-CoA/1,2-didecanoyl-sn-glycerol as substrate preincubated for 120 mins followed by substrate addition measured after 40 mins by liquid scintillation counting method.

The target of assay [2] is T1, Diacylglycerol O-acyltransferase 2. Put plainly: Inhibition of human DGAT2 assessed as reduction in synthesis of triglycerol in human hepatocyte using [14C]glycerol as substrate preincubated for 20 mins followed by substrate addition measured after 3.5 hrs by TLC method.

For `O=C([C@@H]1CCCN(c2ccc3nc(C4(n5cc(Cl)cn5)CC4)[nH]c3n2)C1)N1CCCC1`, the IC50 came to 14 nM in assay [1] and 1.3 nM in assay [2].

As usually defined, the IC50 is the concentration needed to halve the response being measured.
